Binding of CDR-mutated scFvs to a peptide of the spike HR2 region

Antigen: PDVDLGDISGINAS, a 14-residue peptide of the SARS-CoV-2 spike HR2 region.

Parent: Ab-14, a human scFv built as VH, three GGGGS repeats, VL. Only the CDRs of the light chain vary.
VH: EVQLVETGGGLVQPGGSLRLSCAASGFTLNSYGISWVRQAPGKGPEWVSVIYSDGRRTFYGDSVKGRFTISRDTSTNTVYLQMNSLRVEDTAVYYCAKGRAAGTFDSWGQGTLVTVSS
VL: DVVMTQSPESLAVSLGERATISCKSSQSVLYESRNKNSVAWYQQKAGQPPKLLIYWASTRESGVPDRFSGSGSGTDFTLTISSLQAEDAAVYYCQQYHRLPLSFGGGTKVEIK

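The parent was found by panning a naive human phage display library on the peptide. The variants were designed computationally from a first round of random CDR variants and then made and measured. Group labels follow the data file (Ctrl: baseline library sampled from a position-specific scoring matrix, with some repeated check sequences; En: ensemble of fine-tuned language models; GP: Gaussian process model; HC: hill climbing; Gen: genetic algorithm; Gibbs: Gibbs sampling; a sequence that several methods proposed may carry one label only). The assay is AlphaSeq: two haploid yeast populations carry antibody and antigen on their surface. Mating (16 h, 30 °C) was followed by selection of diploids and sequencing of their barcodes. Read counts were normalised to the haploid input and turned into Kd by a linear fit to BCL2-family pairs of known affinity, for each replicate. Each pool was mated in six replicate cultures.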

The parent's light chain CDRs are KSSQSVLYESRNKNSVA, WASTRES, QQYHRLPLS; each variant's own CDRs replace them letter for letter. The read-out is the apparent dissociation constant on a log10 scale (nM): the lower, the stronger. A mean of the replicates is given; it leaves out those without a signal. Where no diploid with the target was found in that replicate, the entry reads "ND": below detection, most likely a poor binder, though not proof of it. Nonspecific signal, from three strains lacking the peptide, appeared in 4% of pairings of all light chain designs, centred on 2.64 (5% of these signals below 1.59); values are not corrected for it. The range of this assay differs from that of the first round, and the authors advise against merging the two. In the paper, a design with two or fewer of six values counts as a poor binder.

{"CDR-L1": "KLEQSTSYESRMCNSVA", "CDR-L2": "NASVRES", "CDR-L3": "QQYHRLPLS", "group": "GP_Gibbs", "log10 Kd, replicates": "0.62 / 0.31 / 0.48 / 1.37 / 0.53 / 0.70", "log10 Kd (nM), mean": "0.67"}
{"CDR-L1": "KLHQSWLYLSRNHNAVA", "CDR-L2": "HASQRCS", "CDR-L3": "QQYHRLPLS", "group": "GP_Gibbs", "log10 Kd, replicates": "2.00 / 1.62 / 1.56 / 1.10 / 1.41 / 1.54", "log10 Kd (nM), mean": "1.54"}
{"CDR-L1": "KSSDSVDDESRNKNSVA", "CDR-L2": "KASTRES", "CDR-L3": "QQYHRLPLS", "group": "Ctrl", "log10 Kd, replicates": "0.23 / -0.04 / -0.18 / -0.01 / 0.16 / 0.07", "log10 Kd (nM), mean": "0.04"}
{"CDR-L1": "IIPQSWLGEWRNKNSVA", "CDR-L2": "DASQRES", "CDR-L3": "QQYHRLPLS", "group": "GP_Gibbs", "log10 Kd, replicates": "-0.14 / -0.34 / -0.36 / -0.22 / -0.43 / -0.28", "log10 Kd (nM), mean": "-0.29"}
{"CDR-L1": "KLYQSTAMLSRMKNNVA", "CDR-L2": "DLNERER", "CDR-L3": "QQYFRLPLS", "group": "En_HC", "log10 Kd, replicates": "0.47 / 0.44 / 0.47 / 0.25 / 0.58 / 0.68", "log10 Kd (nM), mean": "0.48"}
{"CDR-L1": "KLSQSQLYESRMKNNVA", "CDR-L2": "NASTRES", "CDR-L3": "QQYHRLPLS", "group": "GP_Gen", "log10 Kd, replicates": "0.33 / 0.22 / 0.33 / 0.04 / 0.16 / 0.22", "log10 Kd (nM), mean": "0.22"}
{"CDR-L1": "KLSMSMLMESRHKNSVA", "CDR-L2": "ENSTREA", "CDR-L3": "QHYHRLPLS", "group": "En_HC", "log10 Kd, replicates": "2.02 / ND / ND / ND / 2.41 / 2.54", "log10 Kd (nM), mean": "2.33"}
{"CDR-L1": "MFSYNLHDMGANKNSVA", "CDR-L2": "EMNKVTT", "CDR-L3": "QDYHRLPLA", "group": "En_Gibbs", "log10 Kd, replicates": "0.41 / 2.46 / ND / 2.16 / ND / 2.09", "log10 Kd (nM), mean": "1.78"}
{"CDR-L1": "KSSQPVLYESRNKNSVA", "CDR-L2": "WASTRES", "CDR-L3": "QLYHRLPLS", "group": "Ctrl", "log10 Kd, replicates": "ND / ND / ND / ND / ND / 2.88", "log10 Kd (nM), mean": "2.88"}
{"CDR-L1": "SLYEAMQTGGLRTSNIA", "CDR-L2": "DVNQQMR", "CDR-L3": "QHYSRLPLA", "group": "En_Gibbs", "log10 Kd, replicates": "0.66 / 0.58 / 0.48 / 0.52 / 0.58 / 0.79", "log10 Kd (nM), mean": "0.60"}
{"CDR-L1": "HFSQVTMYGSWNKNSVA", "CDR-L2": "QTSTREN", "CDR-L3": "QQYDRLPLS", "group": "En_HC", "log10 Kd, replicates": "2.90 / 2.23 / 2.26 / ND / 2.15 / ND", "log10 Kd (nM), mean": "2.38"}
{"CDR-L1": "KLSQSDLYESRMKNNVA", "CDR-L2": "NASTRES", "CDR-L3": "QQYHRLPLS", "group": "GP_Gen", "log10 Kd, replicates": "0.57 / 0.37 / 0.47 / 0.41 / 0.64 / 1.62", "log10 Kd (nM), mean": "0.68"}
{"CDR-L1": "HMSMLTLMGQRHRNSVA", "CDR-L2": "QMTTREN", "CDR-L3": "QQYDRLPLA", "group": "En_Gen", "log10 Kd, replicates": "1.75 / 1.99 / 3.09 / ND / 1.52 / 2.51", "log10 Kd (nM), mean": "2.17"}
{"CDR-L1": "KLVQSELYEDRNTNSVA", "CDR-L2": "NASQRCS", "CDR-L3": "QQYHRLPLS", "group": "GP_Gibbs", "log10 Kd, replicates": "0.26 / 0.32 / 0.11 / -0.05 / 0.18 / 0.34", "log10 Kd (nM), mean": "0.19"}
{"CDR-L1": "KSSQSVMYESRNKNSVA", "CDR-L2": "WASTRES", "CDR-L3": "QQYHDLPYS", "group": "Ctrl", "log10 Kd, replicates": "ND / ND / ND / ND / ND / ND", "log10 Kd (nM), mean": "ND"}
{"CDR-L1": "KLQQGMDYESRNDNSVA", "CDR-L2": "HASMRES", "CDR-L3": "QQYHRLPLF", "group": "GP_Gibbs", "log10 Kd, replicates": "0.51 / 0.71 / 0.63 / 0.52 / 0.59 / 0.32", "log10 Kd (nM), mean": "0.55"}
{"CDR-L1": "KIDQWKLGESRNKNSVA", "CDR-L2": "DASQRES", "CDR-L3": "QQYHRLPLS", "group": "GP_Gibbs", "log10 Kd, replicates": "0.01 / 0.46 / 0.01 / -0.04 / -0.11 / 0.27", "log10 Kd (nM), mean": "0.10"}
{"CDR-L1": "SFERGLAGSSLVQNNVA", "CDR-L2": "EGKTLWE", "CDR-L3": "QQYMRLPLA", "group": "En_Gibbs", "log10 Kd, replicates": "0.08 / -0.09 / -0.09 / 0.00 / -0.09 / 0.04", "log10 Kd (nM), mean": "-0.03"}
{"CDR-L1": "KSDQSVLYESTNKNSVA", "CDR-L2": "WASTRES", "CDR-L3": "QQYHRLPLS", "group": "Ctrl", "log10 Kd, replicates": "0.72 / 0.70 / 0.97 / 0.96 / 1.17 / 1.18", "log10 Kd (nM), mean": "0.95"}
{"CDR-L1": "HVAMEGAEEKNSYRNIA", "CDR-L2": "DASMRLA", "CDR-L3": "QQYVRLPLG", "group": "En_Gibbs", "log10 Kd, replicates": "0.03 / -0.06 / 0.09 / -0.30 / -0.13 / 0.13", "log10 Kd (nM), mean": "-0.04"}
{"CDR-L1": "KVSQSFLYESRNKNSVA", "CDR-L2": "EASQRES", "CDR-L3": "QQYHRLPLS", "group": "GP_Gen", "log10 Kd, replicates": "-0.22 / -0.25 / -0.28 / -0.29 / -0.45 / 0.07", "log10 Kd (nM), mean": "-0.24"}
{"CDR-L1": "KFSNSVLVESRNKNSVA", "CDR-L2": "WASTRES", "CDR-L3": "YQYHRLPLS", "group": "Ctrl", "log10 Kd, replicates": "ND / 3.12 / ND / ND / 4.37 / ND", "log10 Kd (nM), mean": "3.74"}
{"CDR-L1": "KLSQSVLYESRNKASVA", "CDR-L2": "DASTRES", "CDR-L3": "QQYHRLPLS", "group": "GP_Gen", "log10 Kd, replicates": "0.16 / 0.04 / 0.00 / -0.12 / -0.06 / 0.05", "log10 Kd (nM), mean": "0.01"}
{"CDR-L1": "KLSQSHLYESRMKNSVA", "CDR-L2": "NASTRMS", "CDR-L3": "QQYHRLPLS", "group": "GP_Gen", "log10 Kd, replicates": "-0.01 / 0.03 / -0.02 / 0.06 / -0.20 / -0.09", "log10 Kd (nM), mean": "-0.04"}
{"CDR-L1": "KLRFSVMLESRNKNSVA", "CDR-L2": "SASTRES", "CDR-L3": "QQYHRLPLS", "group": "GP_Gibbs", "log10 Kd, replicates": "-0.22 / -0.20 / -0.24 / -0.21 / -0.18 / 0.20", "log10 Kd (nM), mean": "-0.14"}
{"CDR-L1": "HISMMVGTKGYHKNSVA", "CDR-L2": "NAETRED", "CDR-L3": "QQYHRLPLS", "group": "En_HC", "log10 Kd, replicates": "0.15 / 0.25 / 0.13 / 0.15 / 0.28 / 0.21", "log10 Kd (nM), mean": "0.19"}
{"CDR-L1": "KGSQPCLYESRNKNSVA", "CDR-L2": "SASTRES", "CDR-L3": "QQYHRLPKS", "group": "Ctrl", "log10 Kd, replicates": "ND / ND / ND / ND / ND / ND", "log10 Kd (nM), mean": "ND"}
{"CDR-L1": "QIYQAMHTLMQTKDNVA", "CDR-L2": "DVEERGS", "CDR-L3": "QQYFRLPLS", "group": "En_Gen", "log10 Kd, replicates": "ND / 0.92 / 1.26 / 3.10 / 1.49 / 2.09", "log10 Kd (nM), mean": "1.77"}
{"CDR-L1": "KLSMITGHLQQSKNNVA", "CDR-L2": "EMVTREN", "CDR-L3": "QQYNRLPLS", "group": "En_Gen", "log10 Kd, replicates": "0.92 / 0.50 / 0.05 / -0.35 / 0.31 / 0.07", "log10 Kd (nM), mean": "0.25"}

The 4 strongest on average among those seen in every replicate, once more:

{"CDR-L1": "IIPQSWLGEWRNKNSVA", "CDR-L2": "DASQRES", "CDR-L3": "QQYHRLPLS", "group": "GP_Gibbs", "log10 Kd, replicates": "-0.14 / -0.34 / -0.36 / -0.22 / -0.43 / -0.28", "log10 Kd (nM), mean": "-0.29"}
{"CDR-L1": "KVSQSFLYESRNKNSVA", "CDR-L2": "EASQRES", "CDR-L3": "QQYHRLPLS", "group": "GP_Gen", "log10 Kd, replicates": "-0.22 / -0.25 / -0.28 / -0.29 / -0.45 / 0.07", "log10 Kd (nM), mean": "-0.24"}
{"CDR-L1": "KLRFSVMLESRNKNSVA", "CDR-L2": "SASTRES", "CDR-L3": "QQYHRLPLS", "group": "GP_Gibbs", "log10 Kd, replicates": "-0.22 / -0.20 / -0.24 / -0.21 / -0.18 / 0.20", "log10 Kd (nM), mean": "-0.14"}
{"CDR-L1": "HVAMEGAEEKNSYRNIA", "CDR-L2": "DASMRLA", "CDR-L3": "QQYVRLPLG", "group": "En_Gibbs", "log10 Kd, replicates": "0.03 / -0.06 / 0.09 / -0.30 / -0.13 / 0.13", "log10 Kd (nM), mean": "-0.04"}

Reference: Li et al. 2023, doi:10.1038/s41467-023-39022-2. File: FLAb, binding data.